{
  "source": "paper PMC3286593",
  "about": "(Cancer Chemotherapy and Pharmacology, 2011)",
  "origin": "cited, not measured here",
  "test_system": "VEGF receptors (VEGFRs 1–3), platelet-derived growth factor receptors (PDGFRs α and β)",
  "conditions": "cited from earlier work",
  "data": [
    {"molecule": "CCN(CC)CCNC(=O)c1c(C)[nH]c(/C=C2\\C(=O)Nc3ccc(F)cc32)c1C", "note": "[sunitinib]", "values": [
      {"measurement": "Potency inhibiting VEGFRs 1–3, PDGFRs α and β", "result": "nanomolar range"}
    ]}
  ]
}
